The entries are a selection whose mix differs from that of the whole data set. Some results for these compounds are left out of this collection, so the calls shown say nothing about other tests. Records with an inconclusive call do not appear. Activity calls are given as the source filed them. Rule as the data show it: active = max response below about -50%; inconclusive = no clear call, values can overlap the other calls; inactive = above that.
molecular target: D(3) dopamine receptor (Homo sapiens) (UniProt P35462); experiment: qHTS of D3 Dopamine Receptor Antagonist: qHTS; conditions: D3R cells, DiscoveRx beta-arrestin luminescence, antagonist mode; active compounds read low
Excerpt: D3 DARs represent a very important target for the treatment of several neuropsychiatric disorders. Indeed, one of the most promising therapeutic applications for the D3 DAR is in the area of addiction and related disorders. […] These findings have been observed with a number of addictive substances including cocaine, amphetamine, nicotine, and alcohol. […] Antagonism of the D3 DAR may also be therapeutic in the treatment of schizophrenia or psychosis. […] Since the D3 DAR is expressed in areas of the CNS associated with the control of mood and emotion, it has been hypothesized that selective antagonism of the D3 DAR may be effective in treating psychosis without inducing the motor side effects typically seen with D2 DAR antagonists.
This part of the project aims to discover novel antagonist.
NIH Chemical Genomics Center [NCGC]
NIH Molecular Libraries Probe Centers Network [MLPCN]
Assay Submitter (PI): David Sibley, NINDS
Freshly passaged cells are plated in 1536 well white, solid bottom plates at a density of 1500 cells/well in 3microl of complete media. After an overnight incubation at 37 degrees C in 5% CO2, cells are loaded with 23nl of test compound from the compound library (as well as dopamine controls) using a 1536 pintool and incubated at 37 degrees C for 90 minutes. Two microliters of DiscoveRx reagent is then added to all cells, and they are incubated for an additional 30 - 60 minutes at room temperature. Following incubation, luminescence is measured on a ViewLux CCD-based luminometer reader using a 20 sec exposure time.
% is scaled to controls: 0 for no effect and ±100 for the full control effect.

Chains of the proteins cited; added tags and fusions are not shown.
UniProt P35462, whole entry: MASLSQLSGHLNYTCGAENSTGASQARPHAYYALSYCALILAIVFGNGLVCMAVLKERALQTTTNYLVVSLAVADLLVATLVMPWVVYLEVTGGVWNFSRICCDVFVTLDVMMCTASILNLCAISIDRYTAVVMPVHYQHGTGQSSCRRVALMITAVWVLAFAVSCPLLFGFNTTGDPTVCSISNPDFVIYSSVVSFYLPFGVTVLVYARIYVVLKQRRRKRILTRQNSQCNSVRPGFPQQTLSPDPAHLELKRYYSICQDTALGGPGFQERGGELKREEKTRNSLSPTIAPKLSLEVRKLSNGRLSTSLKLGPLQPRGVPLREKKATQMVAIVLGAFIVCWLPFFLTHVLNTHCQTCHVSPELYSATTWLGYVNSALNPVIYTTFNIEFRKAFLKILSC

Q: How did the max response, negative = inhibition turn out when `COc1cccc(C(=O)NCC2(N3CCCCC3)CCCCC2)c1` was run?
A: inactive: -10%

Q: How did the max response, negative = inhibition turn out when `COc1cc(C(=O)NCC2(N(C)C)CCCCC2)c([N+](=O)[O-])cc1OC` was run?
A: inactive: -4.38%

Q: How did the max response, negative = inhibition turn out when `COc1ccc(Br)c(C(=O)NCC2(N3CCCCC3)CCCCC2)c1` was run?
A: inactive: -18.2%

Q: `CC(C)Oc1ccc(C(=O)NCC2(N(C)C)CCCCC2)cc1` was tested. Which max response, negative = inhibition did it give?
A: inactive: 1.62%

Q: For `O=C(OCCN1CCCC1)C(O)(c1ccccc1)c1ccccc1`, which max response, negative = inhibition is on record?
A: inactive: -0.25%

Q: Which max response, negative = inhibition does the source give for `CN(C)c1cccc(C(=O)NCC2(N(C)C)CCCCC2)c1` here?
A: inactive: -9.84%

Q: For `O=C(OC1CN2CCC1CC2)C(CO)(c1ccccc1)c1ccccc1` (configuration not stated), which max response, negative = inhibition is on record?
A: inactive: -18.4%

Q: How did the max response, negative = inhibition turn out when `CCN(CC)CC(C)C(C)OC(=O)C(O)(c1ccccc1)c1ccccc1` (configuration not stated) was run?
A: inactive: -12.3%

Q: How did the max response, negative = inhibition turn out when `COc1cc(SC)ccc1C(=O)NCC1(N(C)C)CCCCC1` was run?
A: inactive: -12.1%

Q: Which max response, negative = inhibition does the source give for `CC(C)N1C(=O)CC2(CCN(CCOC(=O)C(O)(c3ccccc3)c3ccccc3)CC2)C1=O` here?
A: inactive: -9.82%

Q: With `Cc1ccc(C(=O)NCC2(N3CCCCC3)CCCCC2)cc1` as the compound, how does the max response, negative = inhibition read?
A: inactive: -15.1%

Q: `O=C(NCC1(N2CCCCC2)CCCCC1)c1cc([N+](=O)[O-])ccc1Cl` was tested. Which max response, negative = inhibition did it give?
A: inactive: 1.23%

Q: Which max response, negative = inhibition does the source give for `CN1[C@@H]2CC[C@H]1CC(OC(=O)C(O)(c1ccccc1)c1ccccc1)C2` (some centres not stated) here?
A: inactive: -21.4%

Q: Which max response, negative = inhibition does the source give for `C=CCN1CCN(CCOC(=O)C(O)(c2ccccc2)c2ccccc2)CC1` here?
A: inactive: -6.47%

Q: For `O=C(NCC1(N2CCCCC2)CCCCC1)c1cc(F)c(F)cc1Cl`, which max response, negative = inhibition is on record?
A: inactive: 5.4%

Q: `COc1ccc(C(=O)NCC2(N(C)C)CCCCC2)cc1` was tested. Which max response, negative = inhibition did it give?
A: inactive: 20.5%

Q: For `Cc1cc(C(=O)NCC2(N3CCCCC3)CCCCC2)ccc1[N+](=O)[O-]`, which max response, negative = inhibition is on record?
A: inactive: 1.59%

Q: Which max response, negative = inhibition does the source give for `CCN1CCCC(OC(=O)C2(O)c3ccccc3C=Cc3ccccc32)C1` (configuration not stated) here?
A: inactive: -9.72%

Q: Which max response, negative = inhibition does the source give for `O=C(NCC1(N2CCCCC2)CCCCC1)c1cccc(Br)c1` here?
A: inactive: -13.5%

Q: With `Cc1ccccc1C(=O)NCC1(N2CCCCC2)CCCCC1` as the compound, how does the max response, negative = inhibition read?
A: inactive: 7.51%

Q: How did the max response, negative = inhibition turn out when `CN(C)C1CCCC1OC(=O)C(O)(c1ccccc1)c1ccccc1` (configuration not stated) was run?
A: inactive: 9.24%

Q: For `CN(C)c1ccc(C(=O)NCC2(N(C)C)CCCCC2)cc1`, which max response, negative = inhibition is on record?
A: inactive: 0.921%

From PubChem BioAssay AID652054 (National Center for Advancing Translational Sciences (NCATS), 2013)
